The values below come from PMC7240701 (Journal of medicinal chemistry, 2019).

Sequences of proteins named here, by UniProt entry; tags and fusion partners are left off. Residues count along the entry.
UniProt P07711, 114-333: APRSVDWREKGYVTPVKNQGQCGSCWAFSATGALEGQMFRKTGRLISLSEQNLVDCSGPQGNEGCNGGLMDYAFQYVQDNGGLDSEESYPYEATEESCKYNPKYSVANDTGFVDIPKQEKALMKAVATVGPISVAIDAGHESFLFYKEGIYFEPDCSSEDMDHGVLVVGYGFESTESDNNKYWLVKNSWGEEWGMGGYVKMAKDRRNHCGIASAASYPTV

The assay concerns the target Cathepsin L (Homo sapiens, UniProt P07711). Briefly: Preincubation-dilution reversibility experiment. Type of assay: biochemical.

On to `CC(C)CCNC(=O)[C@H](CC(C)C)NC(=O)[C@H]1O[C@@H]1C(=O)O` [E-64c, reference compound], for which the “catalytic activity upon dilution” value is given as “matched the response of natural product 1”. `CC[C@H](C)[C@@H](C(=O)O[C@@H](CC(C)C)C(=O)N[C@@H](CC(C)C)C(=O)N[C@@H](C)/C=C/C(=O)N1C(=O)C=C(OC)[C@@H]1C)N(C)C` [compound 1, Gallinamide A]: the “catalytic activity upon dilution” value is given as “approximately 5%”, the mode of inhibition entry is on record as “irreversible” and the “reduction of enzymatic reaction rate / product formation after dilution” value was 95%. For the compound `CC[C@H](C)[C@@H](C(=O)O[C@@H](CC(C)C)C(=O)N[C@@H](CC(C)C)C(=O)N[C@@H](C)CCC(=O)N1C(=O)C=C(OC)[C@@H]1C)N(C)C` [compound 17, (S)-1-(((S)-1-(((S)-5-((S)-3-Methoxy-2-methyl-5-oxo-2,5-dihydro-1H-pyrrol-1-yl)-5-oxopentan-2-yl)amino)-4-methyl-1-oxopentan-2-yl)amino)-4-methyl-1-oxopentan-2-yl dimethyl-L-isoleucinate], the “reduction of enzymatic reaction rate / product formation after dilution” value turned out to be 25%.
